AlphaSeq binding of Ab-14 light chain variants to a spike HR2 peptide

Values reported by Li et al. 2023, doi:10.1038/s41467-023-39022-2 (FLAb copy).

Target: peptide PDVDLGDISGINAS, taken from heptad repeat 2 (HR2) of SARS-CoV-2 spike.

Each scFv is VH, the linker GGGGSGGGGSGGGGS, VL, as in the parent Ab-14, and differs from it in the CDRs of the light chain only.
VH: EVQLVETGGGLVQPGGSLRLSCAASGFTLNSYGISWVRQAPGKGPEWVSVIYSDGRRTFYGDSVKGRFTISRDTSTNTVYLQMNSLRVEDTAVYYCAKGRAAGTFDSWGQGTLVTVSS
VL: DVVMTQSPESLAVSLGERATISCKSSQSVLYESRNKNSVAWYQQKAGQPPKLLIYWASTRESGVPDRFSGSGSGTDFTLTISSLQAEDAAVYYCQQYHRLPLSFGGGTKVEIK

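Phage display of a naive human antibody library on the peptide gave the parent. This is the validation round: designs drawn from the data on random variants, tested in the same kind of assay. Group labels follow the data file (Ctrl: baseline library sampled from a position-specific scoring matrix, with some repeated check sequences; Rand: our label for a block that the file lists under HC and that is probably the random mutants of the ten best first-round binders; GP: Gaussian process model; HC: hill climbing; Gen: genetic algorithm; Gibbs: Gibbs sampling; a sequence that several methods proposed may carry one label only). The assay is AlphaSeq: two haploid yeast populations carry antibody and antigen on their surface. Binding brings cells together so that they mate, and sequencing counts the barcode pairs among the diploids. The ratio of observed to expected reads was calibrated, replicate by replicate, on BCL2-family standards whose Kd was known from biolayer interferometry. There are six technical replicates.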

The parent's light chain CDRs are KSSQSVLYESRNKNSVA, WASTRES, QQYHRLPLS; each variant's own CDRs replace them letter for letter. This list holds designs with at most six substitutions. The Kd shown is the geometric mean over detected replicates; a lower Kd is a better binder. An entry "nd" has no value in the source: the pair was not observed among the diploids in any replicate. This suggests poor binding but is not conclusive. Values of this round are not directly comparable with the first-round values of the same sequences. Empty control strains, which show no peptide, gave a signal in 4% of pairings with all light chain designs; the median was 430 nM and 95% of these signals were weaker than 38 nM. No background was subtracted. Also given: how often the same scFv was detected with the empty control strains. The parent sequence was in this pool as ten entries: three were never detected, three once, and four in most replicates, with averages from 2.2 nM to 240 nM. The authors averaged sequences with at least three values out of six and counted those with two or fewer as poor binders.

Variant KFSQSVLYESTTLNSVA, NASTRES, QQYHRLPLS [GP_HC] showed 1.6 nM (6 of 6 replicates; controls 1 of 18).
Variant KSSISWLGEKRNKNSVA, EASTRES, QQYHRLPLS [GP_HC] showed 1.0 nM (6 of 6 replicates; controls 0 of 18).
Variant KLMQSWLYESRNKNSVA, NASQRLS, QQYHRLPLS [GP_Gen] showed 3.4 nM (6 of 6 replicates; controls 1 of 18).
Variant KSSQSVLYESRNRNSVA, WASTRES, QQYARLPLS [Ctrl] showed 5.9 nM (6 of 6 replicates; controls 1 of 18).
Variant KLSQSDLYESRNKNSVA, DASTRES, QQYHRLPLS [GP_Gen] showed 360 pM (6 of 6 replicates; controls 0 of 18).
Variant KSSWSVLGESGNKNSVA, HASTRED, QQYHRLPLS [GP_HC] showed 1.3 nM (6 of 6 replicates; controls 1 of 18).
Variant KSSTSVLYGERNHNSVA, DASTRES, QQYHRLPLS [Ctrl] showed 2.4 nM (6 of 6 replicates; controls 0 of 18).
Variant KSSPSVGYESRNKNSVA, WASTRHS, FQYHRLPLS [Ctrl] showed nd (0 of 6 replicates; controls 0 of 18).
Variant KMPQSVLYESRNKNSVA, DASTRES, QQYHRLPLS [GP_Gen] showed 920 pM (6 of 6 replicates; controls 0 of 18).
Variant KSSQSVLYNSRNKNSCA, WASTRAS, QQYHRLPLS [Ctrl] showed 9.1 nM (6 of 6 replicates; controls 0 of 18).
Variant KLSQSWLYESRNKNNVA, NASTRMS, QQYHRLPLS [GP_Gen] showed 340 pM (6 of 6 replicates; controls 0 of 18).
Variant KALQSVLYESRDKNSVA, HASTRED, QQYHRLPLS [GP_HC] showed 1.7 nM (6 of 6 replicates; controls 1 of 18).
Variant YLSQSVLYESRNKNSVA, NASTREM, QQYHRLPLQ [GP_Gibbs] showed 3.0 nM (6 of 6 replicates; controls 0 of 18).
Variant VSSQSVLYESRNKNSVA, DASTRES, QQYHRLPLS [Ctrl] showed 4.2 nM (6 of 6 replicates; controls 2 of 18).
Variant KVSGSVLYESRNKNSVA, DASTRES, QQYHRLPLS [GP_Gen] showed 720 pM (6 of 6 replicates; controls 1 of 18).
Variant KSSQSVLYESRNKNNVA, HASTRES, QQYHRLPLS [Ctrl] showed 2.3 nM (6 of 6 replicates; controls 2 of 18).
Variant KHSQSVLDESENSNSVA, WASTRES, QQYHRLPLS [Ctrl] showed 36 nM (6 of 6 replicates; controls 1 of 18).
Variant KYEVSVLYESRNHNSVA, RASTRES, QQYHRLPLS [Ctrl] showed 17 nM (6 of 6 replicates; controls 2 of 18).
Variant KSSQSVLQESRNTNSVA, WASTRES, QQYHRLPLS [Ctrl] showed 190 nM (5 of 6 replicates; controls 0 of 18).
Variant KVSPSVLYESRNKNSVA, EASTRES, QQYHRLPLS [GP_Gen] showed 2.8 nM (6 of 6 replicates; controls 1 of 18).
Variant KFSQEYLYESRNKNSVA, NASCRES, QQYWRLPLS [GP_Gibbs] showed 5.9 nM (6 of 6 replicates; controls 0 of 18).
Variant KSSQSVLYESRNKNSVA, WASTREA, QQYHSLPLS [Ctrl] showed 320 nM (6 of 6 replicates; controls 2 of 18).
Variant KLSQSVLYESRNKNSVA, WASTRFS, QQYHSLHLS [Ctrl] showed nd (0 of 6 replicates; controls 0 of 18).
Variant KSSQSVLYESGNLNSVA, AASTRES, QQYHILPLS [Ctrl] showed 20 nM (5 of 6 replicates; controls 0 of 18).
Variant KLSQSVLYESRNENSVA, NASTRES, QQYHRLPLS [GP_Gen] showed 1.6 nM (6 of 6 replicates; controls 1 of 18).
Variant KFSQSQLYESRNKNSVA, NASYRES, QQYHRLPLS [GP_Gen] showed 880 pM (6 of 6 replicates; controls 2 of 18).
Variant KLSQSELYESRNKNSVA, NASQRLQ, QQYHRLPLS [GP_Gen] showed 1.5 nM (6 of 6 replicates; controls 0 of 18).
Variant KLSESELYESRNKNSVA, EASTRES, QQYHRLPLS [GP_Gen] showed 670 pM (6 of 6 replicates; controls 2 of 18).
Variant VLSQSVLYESRNKNSVA, NASTRES, QQYHRLPLS [GP_Gen] showed 910 pM (6 of 6 replicates; controls 0 of 18).
Variant KYSQSVLYESTNKNSVA, DASTRES, QQYHRLPLS [Ctrl] showed 710 pM (6 of 6 replicates; controls 0 of 18).
Variant KSSQSVLYESANKNSVA, WASTRES, QQHHRIPLS [Ctrl] showed nd (0 of 6 replicates; controls 0 of 18).
Variant KVLQSVVYEGRNKNSVA, HASTRES, QQYHRLPLS [GP_HC] showed 1.7 nM (6 of 6 replicates; controls 1 of 18).
Variant KVSQSELYESRNSNSVA, NASTRES, QQYHRLPLS [GP_Gen] showed 1.0 nM (6 of 6 replicates; controls 1 of 18).
Variant KLSMSDLYESRNGNSVA, HASTREK, QQYHRLPLS [GP_Gibbs] showed 590 pM (6 of 6 replicates; controls 0 of 18).
Variant HSSQSVLYESLNKNSVA, WASTRES, QQYHRLPLS [Ctrl] showed 23 nM (6 of 6 replicates; controls 0 of 18).
Variant KVDQSVLYESRNKNAVA, QASTRES, QDYHRLPLS [GP_Gibbs] showed 4.8 nM (6 of 6 replicates; controls 1 of 18).
Variant KFSQSVLYEDRNFNSVA, NASQRES, QQYHRLPLS [GP_Gen] showed 1.3 nM (6 of 6 replicates; controls 0 of 18).
Variant KVSQSVLYESRNKNSVA, WASTRLS, QQYHRLPLS [Ctrl] showed 5.0 nM (6 of 6 replicates; controls 0 of 18).
Variant KLMQSVLYESRNKNSVA, NASTREV, QQYHRLPLS [GP_Gen] showed 700 pM (6 of 6 replicates; controls 1 of 18).
Variant WSSQSVLYESRNKNSCA, WASTRES, QQYHREPLS [Ctrl] showed nd (0 of 6 replicates; controls 0 of 18).
Variant KLSQSFLYEQRNKNSVA, SASTRES, QQYHRLPLS [GP_Gen] showed 1.0 nM (6 of 6 replicates; controls 0 of 18).
Variant KSSQSVLYESLNKNSVA, WASTRHS, QQYHRMPLS [Ctrl] showed 360 nM (1 of 6 replicates; controls 0 of 18).
Variant KVSQSVLYESRCKNSVA, DASTRCS, QQYHRLPLS [GP_HC] showed 2.1 nM (6 of 6 replicates; controls 1 of 18).
Variant KLSESMLYESRNKNSVA, NASTRES, QQYHRLPLS [GP_Gen] showed 4.6 nM (6 of 6 replicates; controls 0 of 18).
Variant KLSQSVLYESDNKNSVA, EADTRES, QQYHRLPLS [Ctrl] showed 1.2 nM (6 of 6 replicates; controls 0 of 18).
Variant KLSQSELYESRNKNSVA, GASTRMS, QQYHRLPLS [GP_Gen] showed 1.9 nM (6 of 6 replicates; controls 0 of 18).
Variant KSSQSVLFESRMKNSVA, DASTRCS, QQYHCLPLE [Rand] showed 37 nM (1 of 6 replicates; controls 0 of 18).
Variant KVSQSVLYEWRSKNSVA, WASTRES, QQYHRLPLS [Ctrl] showed nd (0 of 6 replicates; controls 0 of 18).
Variant KVEQGVLDESRNKNSVA, WASTRES, QQYHRLPLS [GP_Gibbs] showed 6.4 nM (6 of 6 replicates; controls 0 of 18).
Variant KLSQSHLYESRNKWSVA, NASTRES, QQYHRLPLS [GP_Gen] showed 94 nM (5 of 6 replicates; controls 0 of 18).
Variant MLSVSVLYEDRNKNSVA, GASTRES, QQYHRLPLS [Ctrl] showed 1.1 nM (6 of 6 replicates; controls 0 of 18).

Again, the first 4 entries without any signal:

With KSSPSVGYESRNKNSVA, WASTRHS, FQYHRLPLS [Ctrl] the result was nd (0 of 6 replicates; controls 0 of 18).
With KLSQSVLYESRNKNSVA, WASTRFS, QQYHSLHLS [Ctrl] the result was nd (0 of 6 replicates; controls 0 of 18).
With KSSQSVLYESANKNSVA, WASTRES, QQHHRIPLS [Ctrl] the result was nd (0 of 6 replicates; controls 0 of 18).
With WSSQSVLYESRNKNSCA, WASTRES, QQYHREPLS [Ctrl] the result was nd (0 of 6 replicates; controls 0 of 18).